Test results reported in patent US20240335557A1, “BIS-BENZIMIDAZOLE STING AGONIST IMMUNOCONJUGATES, AND USES THEREOF” (BOLT BIOTHERAPEUTICS, INC., priority 2021, published 2024).

Test system: primary human peripheral blood mononuclear cells (PBMC) co-cultured with target antigen-expressing tumor cells
Experiment: PBMC tumor co-culture assay, cytokine secretion (TNFα, IFNλ1)
Type: cell-based
Settings: qualitative
From the text: STING activation is canonically associated with induction of type I/III IFNs (interferons) through IRF3 (interferon regulatory factor 3) signaling, but can also induce proinflammatory cytokines such as TNFα (tumor necrosis factor alpha) through the NF-κB (nuclear factor kappa-light-chain-enhancer of activated B cells) pathway.
The immunoconjugates of the invention can be assessed in a co-culture assay using primary human peripheral blood mononuclear cells (PBMC) co-cultured with target antigen-expressing tumor cells. Briefly, PBMCs are freshly isolated from healthy human donor blood (Stanford Blood Center) by density centrifugation. PBMCs are then co-cultured with antigen-expressing tumor cells at a 10:1 effector to target ratio in complete medium (RPMI supplemented with 10% FBS) and incubated overnight with a range of concentrations of the indicated test articles. Activation is measured by secretion of pro-inflammatory cytokines, such as IFNλ1 and TNFα, by BioLegend LEGENDPLEX™ cytokine bead array.

trastuzumab: recombinant DNA-derived, IgG1 kappa, monoclonal antibody that is a humanized version of a murine anti-HER2 antibody (4D5)
IFNλ1 elicited in the PBMC tumor co-culture assay: essentially no | TNFα elicited in the PBMC tumor co-culture assay: essentially no
